Read-outs that look alike come from different tables or passages of the source.
What was measured:
human α2a-AR [1] = biological target: T1, human α2a-AR (Homo sapiens, UniProt P08913); test: [3H]Rauwolscine equilibrium competition binding, human α2a-AR expressed in CHO cells; settings: for pKi α2a-AR: Table 2, human α2a-AR in CHO cells, mean ± SEM of n = 4-6
human α2b-AR = human α2b-AR (Homo sapiens, UniProt P18089); test: [3H]Rauwolscine equilibrium competition binding, human α2b-AR expressed in CHO cells
human α2c-AR [2] = biological target: T2, human α2c-AR (Homo sapiens, UniProt P18825); test: [3H]Rauwolscine equilibrium competition binding, human α2c-AR expressed in CHO cells
human α1a-AR = human α1a-AR (Homo sapiens, UniProt P35348); test: [3H]prazosin equilibrium competition binding, human α1a-AR expressed in HEK cells; settings: Table 3, mean ± SEM of n = 4-6
human α1b-AR = human α1b-AR (Homo sapiens, UniProt P35368); test: [3H]prazosin equilibrium competition binding, human α1b-AR expressed in HEK cells; settings: Table 3, mean ± SEM of n = 4-6
human α1d-AR = human α1d-AR (Homo sapiens, UniProt P25100); test: [3H]prazosin equilibrium competition binding, human α1d-AR expressed in HEK cells; settings: Table 3, mean ± SEM of n = 4-6
human α2a-AR [3] = biological target: T1, human α2a-AR; test: Reversal of medetomidine mediated inhibition of forskolin-induced cAMP (6 CRE-LUC reporter), CHO cells expressing α2a-AR; assay type: cell-based; settings: read-out: Effective Concentration-50 (nM ± SEM) α2a-AR; reversal of medetomidine (10 nM) effect on forskolin (5 μM) cAMP response; mean ± SEM of n=3-4
human α2c-AR [4] = biological target: T2, human α2c-AR; test: Reversal of medetomidine mediated inhibition of forskolin-induced cAMP (6 CRE-LUC reporter), CHO cells expressing α2c-AR; assay type: cell-based

Chains of the proteins cited; added tags and fusions are not shown.
UniProt P08913, whole entry: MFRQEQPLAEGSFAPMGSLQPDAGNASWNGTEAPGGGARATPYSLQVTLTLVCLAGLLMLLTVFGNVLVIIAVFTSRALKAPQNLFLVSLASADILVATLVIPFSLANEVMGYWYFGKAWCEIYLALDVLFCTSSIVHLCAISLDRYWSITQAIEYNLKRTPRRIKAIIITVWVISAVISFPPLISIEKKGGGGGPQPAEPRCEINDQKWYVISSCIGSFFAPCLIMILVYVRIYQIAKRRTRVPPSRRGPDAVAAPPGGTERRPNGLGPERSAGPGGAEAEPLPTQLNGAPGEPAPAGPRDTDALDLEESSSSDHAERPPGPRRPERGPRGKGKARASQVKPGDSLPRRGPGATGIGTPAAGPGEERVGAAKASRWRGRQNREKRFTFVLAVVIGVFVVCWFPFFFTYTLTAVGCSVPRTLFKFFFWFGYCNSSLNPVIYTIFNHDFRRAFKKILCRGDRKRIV
UniProt P18089, whole entry: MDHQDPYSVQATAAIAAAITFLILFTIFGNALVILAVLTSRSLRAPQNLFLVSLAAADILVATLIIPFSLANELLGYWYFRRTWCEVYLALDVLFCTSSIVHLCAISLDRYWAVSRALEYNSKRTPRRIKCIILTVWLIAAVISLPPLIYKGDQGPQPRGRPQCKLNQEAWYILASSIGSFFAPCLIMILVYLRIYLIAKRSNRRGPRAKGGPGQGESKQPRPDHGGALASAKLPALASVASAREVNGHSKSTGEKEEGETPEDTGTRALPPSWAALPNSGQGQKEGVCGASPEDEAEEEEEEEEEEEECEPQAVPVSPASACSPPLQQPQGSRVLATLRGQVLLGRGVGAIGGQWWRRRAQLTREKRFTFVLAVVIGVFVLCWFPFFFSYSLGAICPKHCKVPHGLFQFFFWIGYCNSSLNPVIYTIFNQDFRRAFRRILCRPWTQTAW
UniProt P18825, whole entry: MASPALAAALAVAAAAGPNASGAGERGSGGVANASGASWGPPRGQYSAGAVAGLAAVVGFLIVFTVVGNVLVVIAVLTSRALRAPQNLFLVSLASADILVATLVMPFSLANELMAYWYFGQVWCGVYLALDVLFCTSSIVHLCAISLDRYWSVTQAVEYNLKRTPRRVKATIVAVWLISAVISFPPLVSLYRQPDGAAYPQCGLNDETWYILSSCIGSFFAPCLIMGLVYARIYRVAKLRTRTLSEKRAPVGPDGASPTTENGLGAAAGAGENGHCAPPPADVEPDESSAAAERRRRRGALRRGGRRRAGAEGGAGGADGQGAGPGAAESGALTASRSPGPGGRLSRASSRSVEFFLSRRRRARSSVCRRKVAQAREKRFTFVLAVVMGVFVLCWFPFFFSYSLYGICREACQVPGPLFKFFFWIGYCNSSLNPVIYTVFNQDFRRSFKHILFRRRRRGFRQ
UniProt P35348, whole entry: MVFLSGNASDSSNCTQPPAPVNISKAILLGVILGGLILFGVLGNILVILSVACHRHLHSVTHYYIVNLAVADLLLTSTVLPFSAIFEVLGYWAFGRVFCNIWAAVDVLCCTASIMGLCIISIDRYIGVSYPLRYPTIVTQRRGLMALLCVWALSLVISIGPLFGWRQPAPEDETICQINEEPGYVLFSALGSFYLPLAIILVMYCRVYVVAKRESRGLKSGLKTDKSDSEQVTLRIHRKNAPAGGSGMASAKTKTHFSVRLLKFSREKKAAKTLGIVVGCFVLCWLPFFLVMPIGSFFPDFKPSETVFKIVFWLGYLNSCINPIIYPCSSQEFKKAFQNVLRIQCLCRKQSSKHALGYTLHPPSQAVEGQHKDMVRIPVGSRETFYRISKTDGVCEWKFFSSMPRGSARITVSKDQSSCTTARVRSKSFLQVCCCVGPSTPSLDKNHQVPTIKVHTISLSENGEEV
UniProt P35368, whole entry: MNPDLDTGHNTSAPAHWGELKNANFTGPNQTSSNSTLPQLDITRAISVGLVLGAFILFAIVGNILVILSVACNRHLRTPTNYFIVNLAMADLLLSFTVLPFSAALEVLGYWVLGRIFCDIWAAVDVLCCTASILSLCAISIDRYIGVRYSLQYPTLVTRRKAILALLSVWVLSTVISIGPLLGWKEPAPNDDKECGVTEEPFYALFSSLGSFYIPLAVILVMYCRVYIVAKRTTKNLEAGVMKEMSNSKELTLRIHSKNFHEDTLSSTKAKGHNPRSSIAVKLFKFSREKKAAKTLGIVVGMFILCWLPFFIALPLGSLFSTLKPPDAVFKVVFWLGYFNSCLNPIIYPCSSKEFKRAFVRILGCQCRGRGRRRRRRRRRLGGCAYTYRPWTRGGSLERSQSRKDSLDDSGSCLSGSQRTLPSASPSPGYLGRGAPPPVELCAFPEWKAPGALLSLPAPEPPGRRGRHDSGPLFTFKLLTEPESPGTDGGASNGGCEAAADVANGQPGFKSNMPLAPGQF
UniProt P25100, whole entry: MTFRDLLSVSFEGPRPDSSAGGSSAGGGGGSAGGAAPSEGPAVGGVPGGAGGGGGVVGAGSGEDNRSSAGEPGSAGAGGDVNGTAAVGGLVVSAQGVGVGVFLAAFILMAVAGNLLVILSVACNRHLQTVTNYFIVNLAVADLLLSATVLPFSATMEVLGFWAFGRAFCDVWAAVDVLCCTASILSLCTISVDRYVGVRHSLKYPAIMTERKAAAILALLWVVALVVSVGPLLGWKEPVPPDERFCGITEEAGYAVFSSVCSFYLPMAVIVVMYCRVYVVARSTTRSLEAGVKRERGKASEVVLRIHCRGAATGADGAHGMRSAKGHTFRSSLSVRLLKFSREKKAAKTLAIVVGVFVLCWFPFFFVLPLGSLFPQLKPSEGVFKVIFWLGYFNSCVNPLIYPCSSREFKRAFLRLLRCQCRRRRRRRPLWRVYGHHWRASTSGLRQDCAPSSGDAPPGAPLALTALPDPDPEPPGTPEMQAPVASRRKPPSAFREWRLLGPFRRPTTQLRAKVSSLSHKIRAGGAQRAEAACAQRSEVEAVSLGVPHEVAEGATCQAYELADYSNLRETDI

Row | Structure (SMILES) | pKi α2a-AR (human α2a-AR [1]) | pKi α2b-AR (human α2b-AR) | pKi α2c-AR (human α2c-AR [2]; Table 3, CHO cells, [3H]rauwolscine, mean ± SEM of n = 4-6) | binding affinity for α2c-AR greater than on the α1-AR subtypes (human α2c-AR [2]; from Table 3) [fold] | binding potency for α2c-AR greater than binding to α2a-AR (human α2c-AR [2]; from pKi values of Table 2) [fold] | binding potency for α2c-AR greater than binding to α2b-AR (human α2c-AR [2]; from pKi values of Table 2) [fold] | selectivity for the human α2c-AR subtype (in words) (human α2c-AR [2]; summary of Table 2) | pKi α1a-AR (human α1a-AR) | pKi α1b-AR (human α1b-AR) | pKi α1d-AR (human α1d-AR) | EC50 (human α2a-AR [3]) [nM] | α2c-AR Selectivity Ratio (EC50 on α2a-AR relative to α2c-AR) (human α2c-AR [4]; Table 4) | more potent at inhibiting the action of medetomidine on α2c-AR versus α2a-AR (human α2c-AR [4]; from Table 4) [fold] | EC50 (human α2c-AR [4]; read-out: Effective Concentration-50 (nM ± SEM) α2c-AR, reversal of medetomidine (10 nM) effect on forskolin (5 μM) cAMP response, mean ± SEM of n=3-4) [nM] | α2a/α2b Selectivity = Ki(α2b)/Ki(α2a) (human α2a-AR [1]; Table 1, ratio of Ki values, tested form: 2HCl, 2.5H2O) | pKi α2a-AR (human α2a-AR [1]; tested form: 2HCl, 2.5H2O) | pKi α2b-AR (human α2b-AR; tested form: 2HCl, 2.5H2O)
1 | O=C(NCCCCCCCCCCCCCCCCCCCCCCCCNC(=O)[C@@H]1[C@H]2C[C@H]3c4[nH]c5ccccc5c4CCN3C[C@@H]2CC[C@@H]1O)[C@@H]1[C@H]2C[C@H]3c4[nH]c5ccccc5c4CCN3C[C@@H]2CC[C@@H]1O | 6.39 ± 0.10 | 5.41 ± 0.02 | 8.30 ± 0.10 | ≥ 2450 | 81 | 776 | potent and selective ligands | 4.52 ± 0.01 | 4.91 ± 0.01 | 4.51 ± 0.08 | 3180 | 28.8 | 29 | 110 |  |  | 
2 | O=C(NCCCCCCCCCNC(=O)[C@@H]1[C@H]2C[C@H]3c4[nH]c5ccccc5c4CCN3C[C@@H]2CC[C@@H]1O)[C@@H]1[C@H]2C[C@H]3c4[nH]c5ccccc5c4CCN3C[C@@H]2CC[C@@H]1O |  |  |  |  |  |  |  |  |  |  |  |  |  |  | 35.8 | 8.40 ± 0.12 | 7.03 ± 0.02
